Values of other authors, collected in US7141590B2, “Pharmaceutical uses and synthesis of nicotinanilide-N-oxides” (UCB SA, priority 2000, dated 2006).

Chains of the proteins cited; added tags and fusions are not shown.
UniProt P25929, whole entry: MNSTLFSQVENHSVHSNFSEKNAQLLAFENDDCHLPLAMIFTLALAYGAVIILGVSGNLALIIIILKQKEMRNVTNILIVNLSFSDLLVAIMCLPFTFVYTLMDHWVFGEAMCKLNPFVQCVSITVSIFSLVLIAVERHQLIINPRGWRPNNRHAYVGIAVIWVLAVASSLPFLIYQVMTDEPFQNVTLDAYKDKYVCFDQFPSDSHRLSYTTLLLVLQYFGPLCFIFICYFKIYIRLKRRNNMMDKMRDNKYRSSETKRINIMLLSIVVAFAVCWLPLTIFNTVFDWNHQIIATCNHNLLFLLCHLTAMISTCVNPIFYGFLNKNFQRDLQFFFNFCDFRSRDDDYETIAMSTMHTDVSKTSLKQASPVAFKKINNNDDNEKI

Molecular target: T1, human neuropeptide Y1 (NPY1) receptors (Homo sapiens, UniProt P25929)
T1 construct: SK-N-MC (human neuroblastoma) cells were used in modified HBSS pH 7.4 buffer; host or cells: SK-N-MC (human neuroblastoma) cells
Conditions: NPY1 reference data; cited from earlier work

## NPY (13–36): neuropeptide Y fragment 13–36
  IC50: 2200 nM
  Ki: 2100 nM
  nH: 1.1
